The values below are quoted from earlier work in PMC4932475, “Evaluation of P-Glycoprotein Inhibitory Potential Using a Rhodamine 123 Accumulation Assay” (Pharmaceutics, 2016).

For this data set, the system named is P-gp. The following applies: ratio of highest versus lowest IC50 from five experimental measurements; ref Lee et al. [11]; cited from earlier work.

Regarding `COc1ccccc1OCCNCC(O)COc1cccc2[nH]c3ccccc3c12` (stereo not shown) [Carvedilol, carvedilol], the “IC50 Range for P-gp Inhibition (-fold)” value is listed as 168 -fold.
